Assay results reported in PMC2812487.
Positions count from the first letter of the chain named. Names may count otherwise. Values belong to the binder of their own block, whether it stands above or below them.

Legend:
Assay in all cases: flow cytometry on cells (Ig-fusion protein staining)
Conditions in all cases: chain shown with the change
[1] = biological target: T1, HLA-G M76V+Q79R+T80K on 721.221 cells, P17693
T1 chain: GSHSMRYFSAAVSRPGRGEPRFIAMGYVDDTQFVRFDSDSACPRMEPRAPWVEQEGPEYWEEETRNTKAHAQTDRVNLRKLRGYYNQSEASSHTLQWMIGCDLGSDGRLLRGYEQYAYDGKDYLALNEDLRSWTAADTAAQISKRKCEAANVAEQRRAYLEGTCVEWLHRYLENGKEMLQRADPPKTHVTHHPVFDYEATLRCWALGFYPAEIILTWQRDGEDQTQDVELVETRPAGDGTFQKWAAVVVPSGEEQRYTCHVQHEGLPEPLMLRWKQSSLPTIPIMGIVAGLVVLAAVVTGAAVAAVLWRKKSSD

[2] = biological target: HLA-G M76V+Q79R on 721.221 cells, P17693
[3] = biological target: HLA-G T80N on 721.221 cells, P17693
[4] = biological target: HLA-G M76V on 721.221 cells, P17693
[5] = biological target: HLA-G T80K on 721.221 cells, P17693
[6] = biological target: HLA-G N151R on 721.221 cells, P17693
[7] = biological target: T2, HLA-G M76V+Q79R+T80N on 721.221 cells, P17693
T2 chain: T1 chain with K80N

[8] = biological target: HLA-G, wild type, on 721.221 cells, P17693

B2: m4; m6 KIR2DS2: KYK/KFK; HLA-G: M76V; HLA-G: Q79R (protein)
chain: HEGVHRKPSLLAHPGPLVKSEETVILQCWSDVRFEHFLLHREGKFKDTLHLIGEHHDGVSKANFSIGPMMQDLAGTYRCYGSVTHSPYQLSAPSDPLDIVITGLYEKPSLSAQPGPTVLAGESVTLSCSSRSSYDMYHLSREGEAHERRFSAGPKVNGTFQADFPLGPATHGGTYRCFGSFRDSPYEWSNSSDPLLVSVTGNPSNSWPSPTEPSSKTGNPRHLH
response [2]: 2.3 MFI

B4: m4; m6 KIR2DS2: KYK/KFK; HLA-G: M76V (protein)
chain: B2 chain
response [4]: 3.1 MFI

B8: KIR2DS2-Ig, P43631 KYK/KFK (protein)
chain: B2 chain
response [8]: 2.8 MFI

Next, values leading:

response [1]: 3.1 MFI
B1: m4; m6 KIR2DS2: KYK/KFK; HLA-G: M76V; HLA-G: Q79R; HLA-G: T80K (protein)
chain: B2 chain

response [3]: 2.09 MFI
B3: m4; m6 KIR2DS2: KYK/KFK; HLA-G: T80N (protein)
chain: B2 chain

response [5]: 2.1 MFI
B5: m4; m6 KIR2DS2: KYK/KFK; HLA-G: T80K (protein)
chain: B2 chain

response [6]: 2.4 MFI
B6: m4; m6 KIR2DS2: KYK/KFK; HLA-G: N151R (protein)
chain: B2 chain

response [7]: 362 MFI
B7: m4; m6 KIR2DS2: KYK/KFK; HLA-G: M76V; HLA-G: Q79R; HLA-G: T80N (protein)
chain: B2 chain
